Data published in patent publication EP3996708B1, “PHARMACEUTICAL COMPOSITIONS COMPRISING INHIBITORS OF OPA1 FOR USE IN THE TREATMENT OF CANCER” (priority 2019, dated 2021).

Test system: MDA-MB-231 cells
Experiment: Scratch wound migration assay
Format: cell-based, human
Settings: 20 µM MYLS22, 6 hours; compared with around 50% reduction by siRNA silencing of OPA1
Description: Scratch wound migration assay: HUVEC and MDA cells were cultured in 48-well plates in 800 µl of EGM2 for 48 hours and were wounded with the head of 200 µl tips.
MDA-MB-231 cells, a human metastatic breast adenocarcinoma cell line were used for measuring if MYLS22 could block MDA-MB-231 migration, an essential feature of cancer metastatization that in these cells is controlled by mitochondrial morphology (Zhao, J., Zhang, J., Yu, M., Xie, Y., Huang, Y., Wolff, D.W., Abel, P.W., and Tu, Y. (2012). Mitochondrial dynamics regulates migration and invasion of breast cancer cells. Oncogene 32, 4814). When OPA1 was blocked genetically, by efficient siRNA-mediated silencing of OPA1 migration was reduced by around 50% in a classic scratch assay.

Cc1nn(-c2ccccc2)c2sc(C(=O)Nc3c(C)n(C)n(-c4ccccc4)c3=O)cc12 [MYLS22, N-(1,5-dimethyl-3-oxo-2-phenyl-2,3-dihydro-1H-pyrazol-4-YL) 3-methyl-1-phenyl-1H-thieno[2,3-c]pyrazole-5-carboxamide]
inhibition of cell migration: very similar inhibition
